Values of other authors in patent US11365216B2, “Antiviral immunotropic agent for the treatment of acute respiratory viral infections” (PVP LABS PTE. LTD., priority 2018, dated 2022).

Amino acid sequences for entries named in this document (tags omitted). A change or cut given only in a name is not applied to a line headed by its entry.
UniProt P01210: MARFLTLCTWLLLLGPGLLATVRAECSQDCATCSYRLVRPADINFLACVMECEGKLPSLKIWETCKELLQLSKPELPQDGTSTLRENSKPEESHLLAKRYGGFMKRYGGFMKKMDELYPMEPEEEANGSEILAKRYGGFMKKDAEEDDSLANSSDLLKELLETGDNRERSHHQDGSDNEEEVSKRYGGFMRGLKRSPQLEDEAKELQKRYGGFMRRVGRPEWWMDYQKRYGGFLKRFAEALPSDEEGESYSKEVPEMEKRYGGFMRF

System: Interferon-α (IFN-α)
Conditions: 24 and 48 hours after subcutaneous administration at 10 mg/kg; cited from earlier work

Substance: leucine-enkephalin (YGGFL; Leu-enkephalin; UniProt P01210 230-234, looked up)
- Interferon-α (IFN-α) secretion: increase
